According to PubChem BioAssay AID463190 (Sanford-Burnham Center for Chemical Genomics, 2010):
The list shows a part of the results, in another mix than the full data. Some of these compounds have results that are not shown, active ones among them. Activity calls are given as the source filed them.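 Rule for the calls: active = inhibition of at least 40%; inactive = the rest.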

test: growth inhibition of tim10-1 ts yeast – luminescence, uHTS, primary screen (AID 463190);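 note: mutant grown at 25 °C; 0% = DMSO wells with yeast and 100% = wells holding no yeast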; conditions: S. cerevisiae tim10-1 ts strain growth, BacTiter-Glo, 24 h; at 20 µM; hits give high values

SMILES | inhibition
CCN(CC)CC(C)C(C)OC(=O)C(O)(c1ccccc1)c1ccccc1 (centres undefined) | inactive: -7.35%
COc1cc(SC)ccc1C(=O)NCC1(N(C)C)CCCCC1 | inactive: 7.43%
CC(C)N1C(=O)CC2(CCN(CCOC(=O)C(O)(c3ccccc3)c3ccccc3)CC2)C1=O | inactive: -13.9%
Cc1ccc(C(=O)NCC2(N3CCCCC3)CCCCC2)cc1 | inactive: -4.72%
O=C(NCC1(N2CCCCC2)CCCCC1)c1cc([N+](=O)[O-])ccc1Cl | inactive: 11.9%
CN1[C@@H]2CC[C@H]1CC(OC(=O)C(O)(c1ccccc1)c1ccccc1)C2 (some centres undefined) | inactive: -0.727%
C=CCN1CCN(CCOC(=O)C(O)(c2ccccc2)c2ccccc2)CC1 | inactive: 7%
O=C(NCC1(N2CCCCC2)CCCCC1)c1cc(F)c(F)cc1Cl | inactive: -5.47%
COc1ccc(C(=O)NCC2(N(C)C)CCCCC2)cc1 | inactive: 13.6%
Cc1cc(C(=O)NCC2(N3CCCCC3)CCCCC2)ccc1[N+](=O)[O-] | inactive: 18.4%
CCN1CCCC(OC(=O)C2(O)c3ccccc3C=Cc3ccccc32)C1 (centres undefined) | inactive: 9.54%
O=C(NCC1(N2CCCCC2)CCCCC1)c1cccc(Br)c1 | inactive: -2.78%
Cc1ccccc1C(=O)NCC1(N2CCCCC2)CCCCC1 | inactive: 12.7%
CN(C)C1CCCC1OC(=O)C(O)(c1ccccc1)c1ccccc1 (centres undefined) | inactive: 9.82%
CN(C)c1ccc(C(=O)NCC2(N(C)C)CCCCC2)cc1 | inactive: 5.55%
COc1cccc(C(=O)NCC2(N3CCCCC3)CCCCC2)c1 | inactive: 7.04%
COc1ccc(Cl)cc1C(=O)NCC1(N(C)C)CCCCC1 | inactive: 3.53%
O=C(NCC1(N2CCCCC2)CCCCC1)c1cccc(Cl)c1 | inactive: -8.66%
CN(C)C1(CNC(=O)c2ccc(Br)cc2)CCCCC1 | inactive: 24.1%
COc1cc(C(=O)NCC2(N(C)C)CCCCC2)c([N+](=O)[O-])cc1OC | inactive: 14.2%
COc1ccc(Br)c(C(=O)NCC2(N3CCCCC3)CCCCC2)c1 | inactive: 16.7%
CC(C)Oc1ccc(C(=O)NCC2(N(C)C)CCCCC2)cc1 | inactive: -5.01%
CN(C)c1cccc(C(=O)NCC2(N(C)C)CCCCC2)c1 | inactive: -21.8%
O=C(OC1CN2CCC1CC2)C(CO)(c1ccccc1)c1ccccc1 (centres undefined) | inactive: -0.706%
